Test results taken from article PMC10872706 (The FEBS journal, 2023).
Like-named read-outs stand apart in the source and are kept apart here.

Test system: E. coli BW25113 wild type
Assay type: cell-based, Escherichia coli

## Cc1ncc(CO)c(C=O)c1O [PL, pyridoxal]
1.4 mM in M9 medium
  effect on bacterial growth: negative effect
2 mM in M9 medium
  effect on bacterial growth: huge lag
2.5 mM in M9 medium
  effect on bacterial growth: complete arrest of growth
